## Antibody variant affinities, Ab-14 light chain, assay B

Values reported by Li et al. 2023, doi:10.1038/s41467-023-39022-2 (FLAb copy).

Binding partner: SARS-CoV-2 spike HR2 peptide, sequence PDVDLGDISGINAS.

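Designed CDR sequences, proposed from the first random library and measured here. Several design methods are mixed in this list. The scFvs were displayed on barcoded MATa yeast, the peptide on MATalpha yeast. The frequency of each diploid, read from paired DNA barcodes, reflects how well the two displayed proteins bind. A regression on co-assayed BCL2-family reference pairs converts the normalised counts of each replicate to an apparent Kd. Each pool was mated in six replicate cultures.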

Parent: Ab-14, a human scFv built as VH, a 15-residue (Gly4Ser)3 linker, VL. Only the CDRs of the light chain vary.
VH: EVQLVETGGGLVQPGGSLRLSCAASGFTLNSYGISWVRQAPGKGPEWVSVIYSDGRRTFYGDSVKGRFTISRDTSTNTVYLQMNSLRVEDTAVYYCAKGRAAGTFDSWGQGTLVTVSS
VL: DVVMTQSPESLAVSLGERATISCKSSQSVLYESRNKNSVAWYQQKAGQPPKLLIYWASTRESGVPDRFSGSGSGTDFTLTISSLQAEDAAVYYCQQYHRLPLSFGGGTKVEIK

Each variant is given by its three light chain CDRs, as the data file delimits them; those of the parent are KSSQSVLYESRNKNSVA, WASTRES, QQYHRLPLS.
This list holds designs with more than six substitutions.
The Kd shown is the geometric mean over detected replicates; a lower Kd is a better binder.
"no signal" means that the variant was in the library but no mating with the target was seen in any replicate; the authors take this as a sign of poor binding, and no number exists.
The authors' rule: three or more of the six replicates give a measured affinity, fewer mean a poor binder.
Of ten entries with the parent sequence, four were seen in most replicates (averages 2.2 nM to 240 nM), three in one and three in none, so single entries are noisy.
Background: pairings of all light chain designs with three empty control strains gave a value in 4% of cases (median 430 nM, 5th percentile 38 nM). Values in that range, when seen in few replicates, are hard to tell from nonspecific mating.
The range of this assay differs from that of the first round, and the authors advise against merging the two.

CDR-L1	CDR-L2	CDR-L3	Kd	detected
KFQQSQLYESRNMNSVA	NASKRMQ	QQYHRLPLK	1.7 nM	6/6
KISQMVRVGSTHSNSIA	EEAKRAD	QQYHRLPLS	2.4 nM	6/6
KLSQSTLYESGMKNSVA	NASKREQ	QQYHRLPLS	13 nM	6/6
SLMDNIWVEDTYRKAIA	DINVRAD	QQYHRLPLS	800 pM	6/6
KAQQSNPYESRNKWSVA	NASTREK	QQYHRLPLS	12 nM	6/6
DMTGQFNGASNIQNSVA	HGVEKID	QQYVRLPLA	1.2 nM	6/6
KISQMVKVGSTHSNSIA	EEQTRAN	QQYHRLPLS	2.1 nM	6/6
KISMMYRYEQQNHSSIA	EANTREQ	QSYHRLPLS	31 nM	6/6
KLRWSNLYESRNKNSVA	NASQRCS	QQYHRLPLS	1.5 nM	6/6
MISMEEAPAIQQASSIA	HGGTRAE	QQYNRLPLC	1.5 nM	6/6
KMSMSVLYEDRNQNSVA	SASQRLD	QQYHRLPLS	630 pM	6/6
TISMSMNWLTFNKNNIA	EESTRED	QQYDRLPLS	78 nM	3/6
IVSQLMLWGMRHKNSIA	EASTRLN	QQYERLPLF	6.0 nM	2/6
KFSDSVLLESRTDNRVA	NASTRES	QQYHRLPLS	610 pM	6/6
KLYERGEGSSKVDRNIA	EMSTRCE	QSYQRLPLS	5.6 nM	6/6
NFSQMVLTGRTLKNSVA	HASTREE	QQYHRLPLI	42 nM	6/6
RLDSVWEQLTNRAQNVA	NATTVIA	QQYMRLPLV	4.8 nM	6/6
TIGQVMNWESRNQNSVA	QTSTREE	QDYDRLPLS	16 nM	6/6
KISMTVENQLKNRNSVA	ELVTRMA	QQYARLPLS	1.7 nM	6/6
KLSQSVLFWGSAINSVA	EMETREY	QQYDRLPLS	54 nM	6/6
KIAQSYLYEDRNKNSVA	NASTRLW	QQYHRLPLS	1.2 nM	6/6
MFSQSVMLGSFTRNSVA	QTSTRES	QQYDRLPLS	7.3 nM	6/6
TLVQSVMGSSRTKNSVA	NASTRED	QHYHRLPLS	1.6 nM	6/6
HMNTADVGVSDHYNSVA	EQRAAGI	QQYFRLPLS	53 nM	5/6
QIYQAMHTLMQAKNNVA	DVNERGD	QQYYRLPLS	1.1 nM	6/6
KFDDLMVEWDANQSQVA	DHAEAQH	QQYDRLPLS	no signal	0/6
KMRVSLLQGIYRQDSVA	STDIRVL	QQYHHLPLS	20 nM	6/6
ALSQSMDMTSRNVNSVA	DLTTRYN	QQYHRLPLS	3.8 nM	6/6
KCQISDEQESRQKNSVA	HASLRES	QQYHRLPLS	1.8 nM	6/6
IIDQIMFHGNKSANSIA	QAEERVN	QQYYHLPLT	8.6 nM	6/6
QMYPFGLAKGEGSNNVA	HVSTRAL	QQYFRLPLV	1.9 nM	6/6
VLPDNLLMKESQYHSIA	NGVQRME	QQYMRLPLT	560 pM	6/6
KISSLTMYESVQKNNIA	EMTTRPE	QSYHRLPLS	9.8 nM	6/6
LIMKFMSQEGSARNNVA	GDTKLAQ	QHYHRLPLS	14 nM	1/6
TISQSFLMENQFKNSVA	QASLRES	QCYDRLPLS	19 nM	6/6
ALRGVGYDEQVKHSAIA	DGEHVNQ	QQYSMLPLS	3.2 nM	6/6
TISQMSTLFSQSINNVA	EVSTREE	QQYDRLPLG	9.9 nM	6/6
MISNVMNTLTHVGNNVA	DLAERED	QQYFRLPLS	1.2 nM	6/6
SVHFMGTTGEQNRESIA	ENSIRVE	QQYSHLPLL	49 nM	6/6
VFSGQWDLNTTVNSAVA	NVSERML	QQYNRLPLM	21 nM	6/6
QVSNTNMQGHAMEHNVA	EGTYAEE	QQYARLPLQ	7.0 nM	6/6
KLQQQSEYGSRNKNSVA	SASTREQ	QQYHRLPLS	890 pM	6/6
KLEQSTLYESRNKNSVA	NASQRER	QQYKRLPLS	570 pM	6/6
ILSQMMLTAGNKHNSVA	QANNRES	QQYHRLPLS	13 nM	5/6
SLHLYTNTEENNNNSIA	EKSYRAY	QQYAHLPLV	33 nM	6/6
KLSQLGLYGQRNKMSVA	DASQRES	QQYHRLPLS	610 pM	6/6
TLSGHQYNYSQKKNSIA	EDNNIRL	QQYHRLPFM	no signal	0/6
DFEQWMFSQNRDDNSIA	HADELVT	QQYAQLPLT	3.1 nM	6/6
KLSGSDLYESRNSNSVA	NGSTRES	QDYHRLPLS	1.1 nM	6/6
MLENKPTSFNNNKDAIA	DDSASTS	QQYDRLPLS	no signal	0/6
HSSPAVRYESRNKNSVA	NASTREE	DDYHRLPLS	44 nM	6/6
KISYMGEYFSTNHSSIA	QASTRMQ	QQYHRLPLS	92 nM	4/6
SLGLVTMLEYAGRNNVA	NNSTREE	QQYDRLPLS	31 nM	3/6
KLSMSYRFETEEKNSIA	ELVTRMS	QQYHRLPLS	8.2 nM	5/6
KIYMMTGFQSRNADSIA	DNSTRGR	QQYHRLPLS	28 nM	2/6
HINEVDPGVKNKYNNIA	DISELAI	QQYFQLPLS	2.4 nM	6/6
KLSQSVEYQSRDKNAVA	DAQTRLS	QQYHRLPLS	950 pM	6/6
KISQMVKVGSTLSNSIA	EEVTRAK	QQYHRLPLA	12 nM	6/6
TLSQLMDMTSHNVNSVA	DLTTRGN	QQYHRLPLS	950 pM	6/6

The 6 strongest on average among those seen in every replicate, once more:

| CDR-L1 | CDR-L2 | CDR-L3 | Kd | detected |
|---|---|---|---|---|
| VLPDNLLMKESQYHSIA | NGVQRME | QQYMRLPLT | 560 pM | 6/6 |
| KLEQSTLYESRNKNSVA | NASQRER | QQYKRLPLS | 570 pM | 6/6 |
| KLSQLGLYGQRNKMSVA | DASQRES | QQYHRLPLS | 610 pM | 6/6 |
| KFSDSVLLESRTDNRVA | NASTRES | QQYHRLPLS | 610 pM | 6/6 |
| KMSMSVLYEDRNQNSVA | SASQRLD | QQYHRLPLS | 630 pM | 6/6 |
| SLMDNIWVEDTYRKAIA | DINVRAD | QQYHRLPLS | 800 pM | 6/6 |